Values quoted from earlier work in US20250312408A1, “NAP FOR SEX-SPECIFIC TREATMENT OF DISEASES” (RAMOT AT TEL-AVIV UNIVERSITY LTD., priority 2021, published 2025).

Tested on: patients with early Alzheimer's disease
Details: patients with early Alzheimer's disease (Ayton S.); cited from earlier work

## aducanumab: FDA-approved drug, an anti-amyloid-β therapy for early Alzheimer's disease
  brain ventricular enlargement (side effect): progressive, dose-dependent ventricular enlargement
